Assay results from US8343729B2, “Luciferin luminescent substrate of marine ostracod crustacean and method for production thereof” (National Institute of Advanced Industrial Science and …, priority 2005, dated 2013).
Several values for one entry are separate records, joined by “and”; a condition that tells them apart may be missing. Identical values can stand only once. Like-named read-outs stand apart in the source and are kept apart here. Blank lines part the entries; values can stand above or below the molecule they belong to.

By UniProt entry, the sequences of proteins in these tests, tags left out. Residues count along the entry.
UniProt P17554, 12-555: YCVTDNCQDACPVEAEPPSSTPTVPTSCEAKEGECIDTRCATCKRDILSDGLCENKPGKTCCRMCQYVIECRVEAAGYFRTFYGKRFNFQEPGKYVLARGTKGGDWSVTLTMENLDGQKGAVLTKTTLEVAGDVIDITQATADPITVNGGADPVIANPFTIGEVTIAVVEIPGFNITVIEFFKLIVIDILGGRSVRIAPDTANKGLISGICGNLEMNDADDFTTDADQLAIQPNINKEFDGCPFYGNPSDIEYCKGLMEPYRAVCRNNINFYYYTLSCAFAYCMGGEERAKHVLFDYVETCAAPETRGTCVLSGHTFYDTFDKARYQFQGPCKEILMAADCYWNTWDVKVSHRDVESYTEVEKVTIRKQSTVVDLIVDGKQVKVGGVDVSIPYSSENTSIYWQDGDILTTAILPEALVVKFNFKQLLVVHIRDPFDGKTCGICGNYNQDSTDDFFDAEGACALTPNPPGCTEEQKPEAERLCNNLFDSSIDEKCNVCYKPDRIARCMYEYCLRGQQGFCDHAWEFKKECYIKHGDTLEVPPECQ
UniProt P02769, 25-607: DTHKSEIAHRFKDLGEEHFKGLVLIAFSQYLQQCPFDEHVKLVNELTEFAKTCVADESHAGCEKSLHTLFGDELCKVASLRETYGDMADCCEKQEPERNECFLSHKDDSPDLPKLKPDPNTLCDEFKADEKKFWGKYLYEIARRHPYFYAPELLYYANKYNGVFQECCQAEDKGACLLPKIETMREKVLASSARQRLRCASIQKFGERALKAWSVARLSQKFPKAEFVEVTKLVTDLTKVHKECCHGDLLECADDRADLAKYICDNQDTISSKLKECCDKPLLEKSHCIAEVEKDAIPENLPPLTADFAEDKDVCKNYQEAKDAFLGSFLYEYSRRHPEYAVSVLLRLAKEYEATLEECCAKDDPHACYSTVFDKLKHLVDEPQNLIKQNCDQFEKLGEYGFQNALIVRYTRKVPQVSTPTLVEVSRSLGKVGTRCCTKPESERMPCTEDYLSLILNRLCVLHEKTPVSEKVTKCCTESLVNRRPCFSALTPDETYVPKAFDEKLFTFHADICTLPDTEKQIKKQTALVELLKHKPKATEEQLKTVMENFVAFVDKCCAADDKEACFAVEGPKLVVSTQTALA

Legend:
[1] = tested on: Marine ostracod crustacean luciferase; test: Measurement of luminescence spectra of marine ostracod crustacean luciferins with luciferase; type: biochemical; settings: Test Example 1
[2] = tested on: Marine ostracod crustacean luciferase; settings: for Biological luminescence (count): luciferase 5 ng/mL
[3] = tested on: Marine ostracod crustacean luciferase
[4] = target: luciferase of marine ostracod crustacean (Vargula hilgendorfii, UniProt P17554); settings: oxidation reaction catalysed by luciferase; background art; cited from earlier work
BSA = BSA (Bos taurus, UniProt P02769); settings: for Luminescence background (count): luciferin 1 μM
[5] = tested on: Marine ostracod crustacean luciferase; remark: listed apart in the source
[6] = 100 mM Tris-HCl (pH 7.5)/1% BSA, no antioxidant
[7] = 100 mM Tris-HCl (pH 7.5)/1% BSA/0.3M sodium ascorbate
[8] = 100 mM Tris-HCl (pH 7.5)/1% BSA/0.3M sodium ascorbate/0.02M Na2SO3
[9] = 24 hours after addition, room temperature, 100 mM Tris-HCl (pH 7.5)/0.3M NaCl
[10] = 24 hours after addition, room temperature, 100 mM Tris-HCl/0.3M sodium ascorbate

activity compared with native luciferin [1]: equivalent to that of native luciferin
B/A [2, 6]: 4382
Biological luminescence (count) [2, 6]: 49159227 count
B/A [2, 7]: 30306
B/A [2, 8]: 60320
Biological luminescence (count) [2, 8]: 55916914 count
Biological luminescence (count) [2, 7]: 48187479 count
Biological luminescence (count) ([3]; 24 hours after addition, room temperature, 100 mM Tris-HCl (pH 7.5)): 212353 count and 227062 count
B/A [3, 9]: 5554 and 4304
Biological luminescence (count) [3, 9]: 794325 count and 783359 count
B/A [3, 10]: 158607 and 194132
Biological luminescence (count) [3, 10]: 32355906 count and 30478724 count
improvement of S/N ([3]; buffer system containing sodium ascorbate (Table 1)): at least 16 times
B/A ([3]; immediately after addition, 100 mM Tris-HCl (pH 7.5)): 13565 and 13945
B/A ([3]; immediately after addition, 100 mM Tris-HCl (pH 7.5)/0.3M NaCl): 7862 and 8128
Biological luminescence (count) ([3]; immediately after addition, 100 mM Tris-HCl (pH 7.5)/0.3M NaCl, luciferin 1 μM, luciferase 5 ng/mL): 38315442 count and 36058420 count
Biological luminescence (count) ([3]; immediately after addition, 100 mM Tris-HCl (pH 7.5), luciferin 1 μM, luciferase 5 ng/mL, 10 seconds): 35961958 count and 36328201 count
B/A ([3]; immediately after addition, 100 mM Tris-HCl/0.3M sodium ascorbate): 269341 and 224690
Biological luminescence (count) ([3]; immediately after addition, 100 mM Tris-HCl/0.3M sodium ascorbate, luciferin 1 μM, luciferase 5 ng/mL): 43364001 count and 43814730 count
Luminescence background (count) (BSA; [6]): 11216 count
Luminescence background (count) (BSA; [8]): 927 count
Luminescence background (count) (BSA; [7]): 1590 count
Biological luminescence after 0 hour (count) ([5]; 100 mM Tris-HCl/0.3M sodium ascorbate/0.02M Na2SO3, luciferin 1 μM, luciferase 5 ng/mL): 49603053 count
Biological luminescence after 24 hour (count) ([5]; left at room temperature for 24 hours, 100 mM Tris-HCl/0.3M sodium ascorbate/0.02M Na2SO3): 49513568 count
Molecule: CC[C@H](C)c1nc2c(CCCNC(=N)N)[nH]c(-c3c[nH]c4ccccc34)cn-2c1=O [Compound 11, marine ostracod crustacean luciferin]
Luminescence background (count) [9]: 143 count and 182 count
Luminescence background (count) [10]: 204 count and 157 count
Luminescence background (count) (immediately after addition, 100 mM Tris-HCl (pH 7.5)/0.3M NaCl, luciferin 1 μM, 10 seconds): 4873 count and 4436 count
Luminescence background (count) (immediately after addition, 100 mM Tris-HCl (pH 7.5), luciferin 1 μM, 10 seconds): 2651 count and 2605 count
Luminescence background (count) (immediately after addition, 100 mM Tris-HCl/0.3M sodium ascorbate, luciferin 1 μM, 10 seconds): 161 count and 195 count
maximum luminescence wavelength [4]: 460 nm

Molecule: marine ostracod crustacean luciferin [Compound 11]
improvement of S/N ratio ([2]; 1% BSA, 100 mM Tris-HCl buffer containing 0.3 M sodium ascorbate and 0.02 M Na2SO3): about 14 times
stability at room temperature ([3]; 100 mM Tris-HCl buffer (pH 7.5) containing 0.3 M sodium ascorbate, 24 hours): stable at room temperature
reduction of luminescence background due to BSA (BSA; 100 mM Tris-HCl buffer containing 0.3 M sodium ascorbate and 0.02 M Na2SO3): about 10 times
stability at room temperature compared with buffer containing 0.3 M sodium ascorbate alone ([5]; 100 mM Tris-HCl buffer (pH 7.5) containing 0.3 M sodium ascorbate and 0.02 M Na2SO3, 24 hours): further enhanced
